“And” between values parts separate entries of the source, which are not always exact repeats. Equal values may be shown once.
T1: catalase HPII, overproduced and purified (Escherichia coli, UniProt P21179 1-753)
T1 construct: catalase HPII of Escherichia coli, gene cloned from the E. coli chromosome; also called pure catalase HPII; purified HPII; source: over-expression system, gene cloned from E. coli chromosome
T1 sequence (looked up): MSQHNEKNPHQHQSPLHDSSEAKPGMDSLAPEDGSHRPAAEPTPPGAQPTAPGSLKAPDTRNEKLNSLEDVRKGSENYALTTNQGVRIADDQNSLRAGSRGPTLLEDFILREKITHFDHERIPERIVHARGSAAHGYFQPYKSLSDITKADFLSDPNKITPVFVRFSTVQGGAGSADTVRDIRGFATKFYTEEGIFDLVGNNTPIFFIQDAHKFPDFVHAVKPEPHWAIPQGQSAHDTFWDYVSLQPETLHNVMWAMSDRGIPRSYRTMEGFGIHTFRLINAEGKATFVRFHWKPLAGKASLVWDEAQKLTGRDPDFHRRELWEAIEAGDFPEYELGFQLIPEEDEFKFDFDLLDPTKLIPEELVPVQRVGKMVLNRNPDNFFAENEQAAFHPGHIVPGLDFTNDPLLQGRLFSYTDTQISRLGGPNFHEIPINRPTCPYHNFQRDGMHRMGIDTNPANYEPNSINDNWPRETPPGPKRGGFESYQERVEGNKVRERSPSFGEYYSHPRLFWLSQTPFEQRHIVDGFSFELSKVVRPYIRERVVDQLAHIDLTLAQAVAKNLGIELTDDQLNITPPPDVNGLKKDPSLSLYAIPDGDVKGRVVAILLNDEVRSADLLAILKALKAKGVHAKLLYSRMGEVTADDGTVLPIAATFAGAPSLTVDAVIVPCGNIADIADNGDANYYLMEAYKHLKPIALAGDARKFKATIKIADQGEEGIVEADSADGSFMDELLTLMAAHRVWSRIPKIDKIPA

T2: catalase HPII (endogenous, Escherichia coli) (Escherichia coli (endogenous in E. coli), UniProt P21179 1-753)
T2 construct: catalase HPII of Escherichia coli, product of the katE gene, endogenous protein, printed molecular weight 84 kDa; residues 27-753 and one heme resolved in the map; Homotetramer, one heme per subunit; also called HPII tetramer; source: endogenous, E. coli overexpressing PomAB mutants
T2 sequence (looked up): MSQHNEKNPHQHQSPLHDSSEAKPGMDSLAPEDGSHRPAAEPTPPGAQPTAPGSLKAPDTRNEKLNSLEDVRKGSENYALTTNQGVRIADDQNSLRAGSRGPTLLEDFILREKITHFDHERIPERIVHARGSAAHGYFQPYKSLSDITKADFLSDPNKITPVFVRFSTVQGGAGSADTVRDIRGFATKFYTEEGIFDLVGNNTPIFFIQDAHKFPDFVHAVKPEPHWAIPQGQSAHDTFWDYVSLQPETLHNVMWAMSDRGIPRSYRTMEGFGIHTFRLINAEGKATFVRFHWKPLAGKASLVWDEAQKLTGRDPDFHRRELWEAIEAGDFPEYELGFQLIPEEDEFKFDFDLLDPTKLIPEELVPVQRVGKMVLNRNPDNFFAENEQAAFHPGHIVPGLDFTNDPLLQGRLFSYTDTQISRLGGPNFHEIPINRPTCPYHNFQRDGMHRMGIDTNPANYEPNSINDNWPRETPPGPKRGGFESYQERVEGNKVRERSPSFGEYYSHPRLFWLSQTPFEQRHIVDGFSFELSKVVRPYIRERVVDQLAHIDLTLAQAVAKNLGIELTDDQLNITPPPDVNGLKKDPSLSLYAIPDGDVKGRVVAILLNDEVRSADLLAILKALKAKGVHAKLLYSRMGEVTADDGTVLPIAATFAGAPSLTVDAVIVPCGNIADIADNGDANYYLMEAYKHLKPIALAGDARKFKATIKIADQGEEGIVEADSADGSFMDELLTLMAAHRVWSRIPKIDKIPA


Experiments:
[1] = target: T1, catalase HPII, overproduced and purified; assay: dynamic light scattering; mixture of wild-type Hfq (~0.5 mg/ml) and HPII (~0.5 mg/ml) after incubation at 40°C, measured at 25°C; conditions: both partners purified
[2] = target: T2, catalase HPII (endogenous, Escherichia …); assay: crystal structure; complex of endogenous Hfq and HPII isolated together from E. coli lysate (nickel-affinity, gel filtration); hanging drop, 20°C, 0.1 M Tris-HCl pH 9.0, 0.18 M NaCl, 10% PEG 4000; 2.85 Å, space group I222; conditions: both partners purified

stoichiometry N [1]	stoichiometry N [2]	Binder
1 Hfq hexamers per HPII tetramer and 2 Hfq hexamers per HPII tetramer		wild-type Hfq, overproduced and purified (natural protein, Escherichia coli, UniProt P0A6X3 1-102, looked up, Hfq of Escherichia coli, gene cloned from the E. coli chromosome; wild type; Hexameric rings that form dimers of hexamers in 150 mM NaCl, 20 mM Tris-HCl pH 8.0; also called pure Hfq; purified Hfq; source: over-expression system, gene cloned from E. coli chromosome) MAKGQSLQDPFLNALRRERVPVSIYLVNGIKLQGQIESFDQFVILLKNTVSQMVYKHAISTVVPSRPVSHHSNNAGGGTSSNYHHGSSAQNTSAQQDSEETE
	1 Hfq hexamer per HPII subunit	Hfq, post-transcriptional regulator (endogenous, Escherichia coli) (natural protein, Escherichia coli (endogenous in E. coli), UniProt P0A6X3 1-102, looked up, Hfq of Escherichia coli, endogenous protein, printed molecular weight 11.2 kDa; residues 5-69 resolved in the map, about 40 C-terminal residues not seen; Homohexameric ring; Endogenous, untagged; also called Hfq hexamer; Hfq ring; source: endogenous, E. coli overexpressing PomAB mutants) MAKGQSLQDPFLNALRRERVPVSIYLVNGIKLQGQIESFDQFVILLKNTVSQMVYKHAISTVVPSRPVSHHSNNAGGGTSSNYHHGSSAQNTSAQQDSEETE

— publication PMC3819363, “Post-Transcriptional Regulator Hfq Binds Catalase HPII: Crystal Structure of the Complex” (PLoS ONE, 2013)
